This experiment concerns the target PPAR-γ (Homo sapiens, UniProt P37231). Nature of the experiment: PPRE reporter (3-PPRE-TK.pGL3) with PPAR-γ expression construct. The conditions noted are these: myometrial and amnion cells, PPAR-γ overexpressed, 10 mM or 20 mM, 24 h.

Protein sequences, listed by entry. Tags and fused reporters are not part of them.
UniProt P37231, whole entry, species assumed: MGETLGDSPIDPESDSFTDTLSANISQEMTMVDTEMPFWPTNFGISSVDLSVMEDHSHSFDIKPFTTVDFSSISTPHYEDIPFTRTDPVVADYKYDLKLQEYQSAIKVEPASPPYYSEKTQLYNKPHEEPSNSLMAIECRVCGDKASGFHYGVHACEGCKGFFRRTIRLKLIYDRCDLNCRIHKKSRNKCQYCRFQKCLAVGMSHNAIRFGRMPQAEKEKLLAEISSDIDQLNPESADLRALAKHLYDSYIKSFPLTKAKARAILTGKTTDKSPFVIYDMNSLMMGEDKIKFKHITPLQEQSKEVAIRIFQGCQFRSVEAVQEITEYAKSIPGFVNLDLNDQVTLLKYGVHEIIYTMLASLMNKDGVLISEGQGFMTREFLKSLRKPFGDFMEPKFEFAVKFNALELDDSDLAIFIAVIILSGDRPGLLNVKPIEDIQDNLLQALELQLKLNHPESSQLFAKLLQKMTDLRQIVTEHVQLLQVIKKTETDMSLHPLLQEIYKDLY

“Also recorded” adds a separate entry of the source.

The source of these data is patent US20070282004A1, “Use of a Cyclopentenone Prostaglandin for Delaying for the Onset and/or Preventing the Continuation of Labour” (Imperial College Innovations Limited, priority 2003, published 2007).

Regarding `CN(CCOc1ccc(C[C@H](Nc2ccccc2C(=O)c2ccccc2)C(=O)O)cc1)c1ccccn1` [GW1929], the “PPAR-γ-mediated transcription of a PPRE-dependent reporter” value is recorded as “potentiate; also recorded: potentiating”.
